Reference: ChEMBL document CHEMBL5042528, “Optimization of 2-Amino-4,6-diarylpyrimidine-5-carbonitriles as Potent and Selective A1 Antagonists” (J Med Chem, 2022)

Assays:
[1] = target: Adenosine receptor A2a (Homo sapiens, UniProt P29274); assay: Displacement of [3H]SCH-58261 from A2A adenosine receptor (unknown origin) expressed in HEK cell membrane at 1 uM incubated for 60 mins at room temperature by NXT microplate scintillation counter analysis relative to control; assay type: cell membranes
[2] = target: T1, Adenosine receptor A2b (Homo sapiens) (UniProt P29275); assay: Antagonist activity at A2B adenosine receptor (unknown origin); assay type: functional; design: scale not given: the % may be the effect or the level left
T1 sequence (whole entry): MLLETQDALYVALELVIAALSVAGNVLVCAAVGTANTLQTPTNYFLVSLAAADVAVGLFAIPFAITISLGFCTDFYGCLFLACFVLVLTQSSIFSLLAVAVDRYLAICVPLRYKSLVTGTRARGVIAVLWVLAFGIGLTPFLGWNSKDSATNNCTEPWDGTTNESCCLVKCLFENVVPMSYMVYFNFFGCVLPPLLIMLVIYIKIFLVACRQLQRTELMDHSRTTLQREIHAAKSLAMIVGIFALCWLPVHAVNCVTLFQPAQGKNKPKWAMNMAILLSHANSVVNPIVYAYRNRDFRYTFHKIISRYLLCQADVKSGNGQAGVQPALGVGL

Work on `Nc1nc(-c2ccccc2)cc(-c2ccc3c(c2)OCO3)n1` yielded an Activity [1] of 1% and an Activity [2] of 7%.
